Reference: patent publication US20050101618A1, “Selective erbB2 inhibitor/anti-erbB antibody combinations in the treatment of cancer” (Pfizer Inc, priority 2003, published 2005)

Experiments:
[1] = Body weight and tolerability in BT-474 tumor-bearing mice
[2] = test system: BT-474 human breast adenocarcinoma; experiment: BT-474 xenograft tumor growth inhibition in athymic female mice; type: in vivo; details: for % Growth inhibition: 28 days
Experimental: The activity of the compounds of formula 1, in vivo, can be determined by the amount of inhibition of tumor growth by a test compound relative to a control. The tumor growth inhibitory effects of various compounds are measured according to the method of Corbett T. H., et al., “Tumor Induction Relationships in Development of Transplantable Cancers of the Colon in Mice for Chemotherapy Assays, with a Note on Carcinogen Structure”, Cancer Res., 35, 2434-2439 (1975) and Corbett T. H., et al., “A Mouse Colon-tumor Model for Experimental Therapy”, Cancer Chemother. Rep. (Part 2)”, 5, 169-186 (1975), with slight modifications. Tumors are induced in the left flank by subcutaneous (sc) injection of 5 million log phase cultured tumor cells (BT-474 human breast adenocarcinoma) suspended in Matrigel (1:1 in PBS). […] Rep., 3, 1-104 (1972). Results are expressed as percent inhibition, according to the formula: Inhibition (%)=(TuWcontrol−TuWtest)/TuWcontrol×100%. The flank site of tumor implantation provides reproducible dose/response effects for a variety of chemotherapeutic agents, and the method of measurement (tumor diameter) is a reliable method for assessing tumor growth rates.
Statistical Analysis: The statistical analysis of tumor growth was done using SAS Version 8, PROC GLM by Non-clinical statistical group.

[3] = Herceptin 0.1 mg/kg IP twice weekly
[4] = Herceptin 0.3 mg/kg IP twice weekly

## Herceptin: humanized monoclonal antibody that binds with high affinity to the extracellular domain of the protein-encoded by HER2
[1]; [3]
  Average body weight Day 1: (22) g
  Average body weight Day 28: (24) g
[1]; [4]
  Average body weight Day 1: (23) g
  Average body weight Day 28: (25) g
[1]; athymic mice, 28 days, all dose groups
  Tolerability, body weight loss, animal mortality: well tolerated and there was no body weight loss or animal mortality
[2]; [3]
  % Growth inhibition: 4%
  Tumor volume Day 28: 391 ± 43 mm^3
[2]; [4]
  % Growth inhibition: 24%
  Tumor volume Day 28: 308 ± 47 mm^3
